# Earlier results as cited in paper PMC8307404, “Crystal Structure-Guided Design of Bisubstrate Inhibitors and Photoluminescent Probes for Protein Kinases of the PIM Family” (Molecules, 2021).
# Target: PIM-1
# Conditions: read-out: KD (PIM-1); cited from earlier work
sequence,measurement,value
ARKRRRHPSGPPTA [Pimtide],Kd,58 nM
